Values quoted from earlier work as cited in US20180177777A1, “FORMULATIONS FOR MITIGATING OPIOID OVERDOSE AND METHODS OF MAKING AND USING THE SAME” (priority 2016, published 2018).

Settings: intranasal naloxone

## C=CCN1CC[C@]23c4c5ccc(O)c4O[C@H]2C(=O)CC[C@@]3(O)[C@H]1C5 [naloxone]
  half-life (t1/2): 2.08 h
